Legend:
Cytochrome P450 2C19 [1] = target: Cytochrome P450 2C19 (Homo sapiens, UniProt P33261, W212C); assay: Activity of human recombinant CYP2C19 W212C mutant expressed in Saccharomyces cerevisiae BJ5457 assessed as omeprazole 5'-hydroxylation per pmol protein at 100 uM after 60 mins; format: ADME; details: recombinant enzyme, 1 h
Cytochrome P450 2C19 [2] = target: Cytochrome P450 2C19 (Homo sapiens, UniProt P33261, E92D); assay: Activity of human recombinant CYP2C19 E92D mutant expressed in Saccharomyces cerevisiae BJ5457 assessed asomeprazole 5'-hydroxylation after 60 mins; format: ADME; details: recombinant enzyme, 1 h

## COc1ccc2[nH]c([S+]([O-])Cc3ncc(C)c(OC)c3C)nc2c1 (configuration not stated) [OMEPRAZOLE]
Cytochrome P450 2C19 [1]
  Drug metabolism: 1.78 pmol/min
Cytochrome P450 2C19 [2]
  Km: 8.75 µM

Reference: ChEMBL document CHEMBL3526057, “Evaluation of the effects of 20 nonsynonymous single nucleotide polymorphisms of CYP2C19 on S-mephenytoin 4'-hydroxylation and omeprazole 5'-hydroxylation” (Drug Metab Dispos, 2011)
